The values below come from patent publication US20260116921A1, “PEPTIDE INHIBITORS OF INTERLEUKIN-23 RECEPTOR AND THEIR USE TO TREAT INFLAMMATORY DISEASES” (priority 2018, published 2026).

The structures appear in SMILES notation.

For this assay, the target named is T1, IL-23R (Homo sapiens, UniProt Q5VWK5).
T1 sequence (Q5VWK5 24-629): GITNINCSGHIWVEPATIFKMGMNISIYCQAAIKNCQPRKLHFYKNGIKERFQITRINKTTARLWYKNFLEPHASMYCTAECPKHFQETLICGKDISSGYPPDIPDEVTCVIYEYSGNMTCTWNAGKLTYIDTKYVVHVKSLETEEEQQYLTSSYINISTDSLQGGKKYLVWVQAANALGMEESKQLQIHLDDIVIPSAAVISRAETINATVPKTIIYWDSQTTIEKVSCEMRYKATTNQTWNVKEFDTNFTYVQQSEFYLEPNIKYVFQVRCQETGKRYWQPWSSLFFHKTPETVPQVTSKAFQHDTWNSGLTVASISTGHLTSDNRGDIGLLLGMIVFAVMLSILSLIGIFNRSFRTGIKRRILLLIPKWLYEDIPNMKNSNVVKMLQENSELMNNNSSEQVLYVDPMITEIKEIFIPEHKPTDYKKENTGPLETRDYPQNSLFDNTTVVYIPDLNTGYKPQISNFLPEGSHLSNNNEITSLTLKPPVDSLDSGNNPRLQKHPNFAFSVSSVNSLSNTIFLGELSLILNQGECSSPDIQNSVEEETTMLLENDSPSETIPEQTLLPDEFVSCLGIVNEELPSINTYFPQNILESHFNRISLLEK
Description: DB cells IL23R pSTAT3 cell assay (pStat3 HTRF). The class given is cell-based. An excerpt: Human ELISA indicates the IL23-IL23R competitive binding assay described below, Rat ELISA indicates the rat IL-23R competitive binding ELISA assay described below, and pStat3HTRF indicates the DB cells IL-23R pSTAT3 cell assay described below. The peptides depicted in Table E1 are cyclized via a disulfide bridge formed between two Pen residues in these peptides. The peptides depicted in Table E2 are cyclized via a thioether bond between the indicated amino acid residues. Table E2 provides an illustrative structure depicting thioether cyclization, which is indicated in the table by the term “cyclo,” with the cyclic region bracketed immediately following the term “cyclo.” For certain peptides, the residue Abu is present where indicated, whereas in other embodiments, e.g., those related to the non-cyclized form, the Abu may be referred to as a hSer(Cl) or homoSer residue.
DB Cells IL23R pSTAT3 Cell Assay
IL-23 plays a central role in supporting and maintaining Th17 differentiation in vivo. […] Changes in phospho-STAT3 levels in the cell lysates were detected using the Cisbio HTRF pSTAT3 (Tyr705) Cellular Assay Kit (Cisbio #62AT3PEH), according to manufacturer's Two Plate Assay protocol.
A general note: Time-resolved FRET reads energy transfer from a long-lived donor to a nearby acceptor.

For `CC(=O)NCCCC[C@@H]1NC(=O)[C@H](Cc2c[nH]c3c(C)cccc23)NC(=O)[C@H]([C@@H](C)O)NC(=O)[C@H](CC(N)=O)NC(=O)[C@@H](NC(C)=O)C(C)(C)SSC(C)(C)[C@@H](C(=O)N[C@@H](Cc2ccc(OCCN)cc2)C(=O)N[C@@H](Cc2ccc3ccccc3c2)C(=O)N[C@@](C)(CCCCN)C(=O)N[C@@H](CCCCNC(C)=O)C(=O)N[C@@H](CC(N)=O)C(=O)N[C@@H](Cc2c[nH]cn2)C(N)=O)NC1=O` [compound 248], the IC50 was under 1 nM.

The term IC50 denotes the concentration needed to halve the response being measured. Read a low IC50 as greater potency in that assay.
